Experiments:
[1] = biological target: PARP (Mus musculus, UniProt P11103); experiment: whole cell PARP inhibition in UV-activated RAW 264.7 macrophages, PARP activity by ELISA; assay type: cell-based; settings: known peak plasma level in TB patients over whole-cell PARP IC50
Method: PARP activity was activated in RAW 264.7 macrophage cells (by UV) that were pre-treated with PZA or POA for 1 hour and then PARP activity measured by ELISA as previously.^2 Replicate plates, n=3, mean±se.
PZA is a prodrug activated to POA, the active form. […] Known peak plasma levels of POA and PZA of 300 μM and 500 μM in TB patients treated with PZA,^10 mean the ratio of plasma Cmax/IC50 is 20 for POA while it is only 4 for PZA, so that inhibition of PARP by POA should be dominant when it is formed by PZase.

Chains of the proteins cited; added tags and fusions are not shown. Residues count along the entry.
UniProt P11103, 2-1013: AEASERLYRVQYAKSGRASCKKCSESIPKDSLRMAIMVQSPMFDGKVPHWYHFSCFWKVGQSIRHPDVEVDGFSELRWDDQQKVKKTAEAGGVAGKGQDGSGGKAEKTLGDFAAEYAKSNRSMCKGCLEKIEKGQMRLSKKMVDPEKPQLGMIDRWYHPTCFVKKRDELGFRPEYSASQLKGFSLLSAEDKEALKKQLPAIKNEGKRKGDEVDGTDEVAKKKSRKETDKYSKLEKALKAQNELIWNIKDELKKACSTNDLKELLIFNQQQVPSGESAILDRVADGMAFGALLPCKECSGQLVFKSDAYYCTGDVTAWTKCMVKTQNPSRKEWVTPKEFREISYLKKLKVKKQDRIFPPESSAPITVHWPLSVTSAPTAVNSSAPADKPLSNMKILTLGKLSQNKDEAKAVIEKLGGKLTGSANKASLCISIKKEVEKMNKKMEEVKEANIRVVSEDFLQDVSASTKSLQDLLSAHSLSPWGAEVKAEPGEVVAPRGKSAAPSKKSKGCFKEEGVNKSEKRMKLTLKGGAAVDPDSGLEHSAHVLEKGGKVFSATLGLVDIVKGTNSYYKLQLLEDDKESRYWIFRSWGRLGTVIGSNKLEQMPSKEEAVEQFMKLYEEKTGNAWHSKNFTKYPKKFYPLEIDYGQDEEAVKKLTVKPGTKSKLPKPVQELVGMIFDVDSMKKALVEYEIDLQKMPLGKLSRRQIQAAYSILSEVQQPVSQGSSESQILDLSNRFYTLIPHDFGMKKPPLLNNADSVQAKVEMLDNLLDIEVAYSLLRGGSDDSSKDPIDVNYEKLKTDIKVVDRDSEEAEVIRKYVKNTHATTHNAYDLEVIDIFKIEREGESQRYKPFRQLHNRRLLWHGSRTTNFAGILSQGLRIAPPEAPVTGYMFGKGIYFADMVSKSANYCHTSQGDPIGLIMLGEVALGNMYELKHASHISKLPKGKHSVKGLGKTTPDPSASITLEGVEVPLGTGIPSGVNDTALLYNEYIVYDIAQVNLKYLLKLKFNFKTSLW

[2] = in vivo; cited from earlier work

NC(=O)c1cnccn1 [PZA, pyrazinamide]
ratio of plasma Cmax/IC50 [1]: 4
distribution in human granulomas [2]: wide distribution

— US20200009143A1, “REPURPOSING OF CANCER DRUGS FOR TREATMENT OF MYCOBACTERIUM” (STC.UNM, priority 2016, published 2020)
